{"sequences": {"note": "Chains of the proteins cited; added tags and fusions are not shown.", "UniProt O14684, whole entry": "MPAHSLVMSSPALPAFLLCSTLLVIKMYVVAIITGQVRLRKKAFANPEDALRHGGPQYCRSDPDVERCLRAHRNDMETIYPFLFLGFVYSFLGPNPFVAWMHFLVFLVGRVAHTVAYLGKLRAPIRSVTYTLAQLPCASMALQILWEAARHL"}, "source": "patent US20090192158A1", "about": "“Methods for Treating or Preventing Neoplasias” (priority 2006, published 2009)"}
{"target": "T1, human mPGES-1 (Homo sapiens, UniProt O14684)", "assay": "Human A549 whole cell prostaglandin E synthase assay", "conditions": "read-out: IC50 of IL-1β induced mPGES-1 induced PGE2 synthesis; A549 human lung adenocarcinoma cells, IL-1β stimulated, 24 hours", "units": {"IC50": "nM"}}
{"smiles": "CC(C)(O)C#Cc1ccc2c(c1)c1cc(Br)ccc1c1[nH]c(-c3c(C#N)cccc3C#N)nc21", "IC50": 3.29}
{"target": "T1, human mPGES-1", "assay": "Microsomal prostaglandin E synthase assay", "assay_type": "biochemical", "conditions": "read-out: h-CHO (nM); potency expressed as IC50; microsomes of CHO-K1 cells transfected with human mPGES-1; PGE2 by EIA; average of at least n=3", "units": {"IC50": "nM"}}
{"smiles": "N#Cc1cccc(C#N)c1-c1nc2c3ccc(C#CC4(O)CCCC4)cc3c3cc(Cl)ccc3c2[nH]1", "IC50": 0.9}
{"smiles": "CC(=O)c1ccc2c(c1)c1cc(Cl)ccc1c1nc(-c3c(Br)cccc3C#N)[nH]c21", "IC50": 9.9}
{"smiles": "CC(O)(c1ccc2c(c1)c1cc(Cl)ccc1c1[nH]c(-c3c(F)cccc3C#N)nc21)C(F)(F)F", "note": "(stereo not shown)", "IC50": 2}
{"smiles": "COCC#Cc1ccc2c(c1)c1cc(Cl)ccc1c1[nH]c(-c3c(C#N)cccc3C#N)nc21", "IC50": 1.5}
{"smiles": "N#Cc1cccc(F)c1-c1nc2c3ccc(Cl)cc3c3ccccc3c2[nH]1", "IC50": 2.1}
{"smiles": "N#Cc1cccc(C#N)c1-c1nc2c3ccc(C4CC4)cc3c3cc(Cl)ccc3c2[nH]1", "IC50": 1.5}
{"smiles": "N#Cc1cccc(C#N)c1-c1nc2c3ccc(C#Cc4cc[n+]([O-])cc4)cc3c3cc(Cl)ccc3c2[nH]1", "IC50": 2.4}
{"smiles": "CC(C)(O)c1ccc2c(c1)c1cc(Cl)ccc1c1nc(-c3c(F)cccc3C#N)[nH]c21", "IC50": 12}
{"smiles": "CC(O)C#Cc1ccc2c(c1)c1cc(Cl)ccc1c1[nH]c(-c3c(C#N)cccc3C#N)nc21", "note": "(stereo not shown)", "IC50": 1.1}
{"smiles": "N#Cc1cccc(Br)c1-c1nc2c3ccc(Cl)cc3c3cc([S+]([O-])C(F)(F)F)ccc3c2[nH]1", "note": "(stereo not shown)", "IC50": 3.7}
{"smiles": "N#Cc1cncc(C#N)c1-c1nc2c3ccc(Cl)cc3c3ccccc3c2[nH]1", "IC50": 2.1}
{"smiles": "CC(O)c1ccc2c(c1)c1cc(Cl)ccc1c1nc(-c3c(C#N)cccc3C#N)[nH]c21", "note": "(stereo not shown)", "IC50": 4.8}
{"smiles": "CC(=O)c1ccc2c(c1)c1cc(Cl)ccc1c1nc(-c3c(F)cccc3C#N)[nH]c21", "IC50": 13.1}
{"smiles": "N#Cc1cccc(F)c1-c1nc2c3ccc(Br)cc3c3cc(Br)ccc3c2[nH]1", "IC50": 1.9}
{"smiles": "N#Cc1cccc(C#N)c1-c1nc2c3ccc(Cl)cc3c3cc(-c4ccc(N5CCOCC5)nc4)ccc3c2[nH]1", "IC50": 1}
{"smiles": "CC(C)(O)c1cccc(-c2ccc3c(c2)c2cc(Cl)ccc2c2nc(-c4c(C#N)cccc4C#N)[nH]c32)c1", "IC50": 1.2}
{"smiles": "CS(=O)(=O)c1ccc(-c2ccc3c(c2)c2cc(Cl)ccc2c2[nH]c(-c4c(C#N)cccc4C#N)nc32)cc1", "IC50": 1.5}
{"smiles": "C=Cc1ccc2c(c1)c1ccccc1c1[nH]c(-c3c(C#N)cccc3C#N)nc21", "IC50": 1.7}
{"smiles": "N#Cc1cccc(Cl)c1-c1nc2c3ccc(C#CC4(O)CCOCC4)cc3c3cc(Br)ccc3c2[nH]1", "IC50": 1.2}
{"smiles": "CC(=O)C#Cc1ccc2c(c1)c1cc(Cl)ccc1c1[nH]c(-c3c(C#N)cccc3C#N)nc21", "IC50": 1.7}
{"smiles": "CC(C)(O)C#Cc1ccc2c(c1)c1cc(Br)ccc1c1[nH]c(-c3c(Cl)cccc3C#N)nc21", "IC50": 0.9}
